# Assay results as given in PubChem BioAssay (NCI).
#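 All cell lines were grown in 96-well plates and treated with compound for 48 hours. The concentration for 50% growth inhibition is given as GI50. TGI: total growth inhibition.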
# How the values were obtained:
# Test in all cases: DTP human tumour cell line panel, 48 h
# TK-10 renal = test system: TK-10 renal
# HS 578T breast = test system: HS 578T breast
# SF-268 CNS = test system: SF-268 CNS
# NCI-H322M lung = test system: NCI-H322M lung
# PC-3 prostate = test system: PC-3 prostate
# OVCAR-4 ovarian = test system: OVCAR-4 ovarian
# NCI-H23 lung = test system: NCI-H23 lung
# SNB-19 CNS = test system: SNB-19 CNS
# ACHN renal = test system: ACHN renal
# RXF 393 renal = test system: RXF 393 renal
# MDA-MB-231 breast = test system: MDA-MB-231 breast
# SF-295 CNS = test system: SF-295 CNS
# SK-OV-3 ovarian = test system: SK-OV-3 ovarian
# MOLT-4 leukemia = test system: MOLT-4 leukemia
# SN12C renal = test system: SN12C renal
# CAKI-1 renal = test system: CAKI-1 renal
# COLO 205 colon = test system: COLO 205 colon
# LOX IMVI melanoma = test system: LOX IMVI melanoma
# MCF7 breast = test system: MCF7 breast
# SK-MEL-28 melanoma = test system: SK-MEL-28 melanoma
# HT29 colon = test system: HT29 colon
# UO-31 renal = test system: UO-31 renal
# NCI-H226 lung = test system: NCI-H226 lung
# OVCAR-8 ovarian = test system: OVCAR-8 ovarian
# UACC-257 melanoma = test system: UACC-257 melanoma
# HL-60(TB) leukemia = test system: HL-60(TB) leukemia
# M14 melanoma = test system: M14 melanoma
# KM12 colon = test system: KM12 colon
# NCI-H522 lung = test system: NCI-H522 lung
# BT-549 breast = test system: BT-549 breast
# OVCAR-3 ovarian = test system: OVCAR-3 ovarian
# SR leukemia = test system: SR leukemia
# SK-MEL-2 melanoma = test system: SK-MEL-2 melanoma
# UACC-62 melanoma = test system: UACC-62 melanoma
# HOP-62 NSCLC = test system: HOP-62 NSCLC
# A549 NSCLC = test system: A549 NSCLC
# MDA-MB-435 = test system: MDA-MB-435
# U251 CNS = test system: U251 CNS
# SK-MEL-5 melanoma = test system: SK-MEL-5 melanoma
# EKVX NSCLC = test system: EKVX NSCLC
# SW-620 colon = test system: SW-620 colon
# HCC-2998 colon = test system: HCC-2998 colon
# A498 renal = test system: A498 renal
# MALME-3M melanoma = test system: MALME-3M melanoma
# NCI-H460 lung = test system: NCI-H460 lung
# HCT-15 colon = test system: HCT-15 colon
# MDA-N = test system: MDA-N
# CCRF-CEM leukemia = test system: CCRF-CEM leukemia
# DU-145 prostate = test system: DU-145 prostate
# NCI/ADR-RES ovarian = test system: NCI/ADR-RES ovarian
# SF-539 CNS = test system: SF-539 CNS
# K-562 leukemia = test system: K-562 leukemia
# OVCAR-5 ovarian = test system: OVCAR-5 ovarian
# IGROV1 ovarian = test system: IGROV1 ovarian
# SNB-75 CNS = test system: SNB-75 CNS
# HCT-116 colon = test system: HCT-116 colon
# HOP-92 NSCLC = test system: HOP-92 NSCLC
# 786-0 renal = test system: 786-0 renal
smiles,measurement,setting,value
O=[N+]([O-])c1ccc2c(c1)/C(=N/N=C1/c3cc([N+](=O)[O-])ccc3-c3c1cc([N+](=O)[O-])cc3[N+](=O)[O-])c1cc([N+](=O)[O-])cc([N+](=O)[O-])c1-2,GI50,TK-10 renal,3.67 µM
same,TGI,TK-10 renal,14.1 µM
same,GI50,HS 578T breast,12.2 µM
same,TGI,HS 578T breast,72.8 µM
same,GI50,SF-268 CNS,1.62 µM
same,TGI,SF-268 CNS,9.42 µM
same,GI50,NCI-H322M lung,3.95 µM
same,TGI,NCI-H322M lung,21.4 µM
same,GI50,PC-3 prostate,4.14 µM
same,TGI,PC-3 prostate,22.3 µM
same,GI50,OVCAR-4 ovarian,9.23 µM
same,TGI,OVCAR-4 ovarian,28.2 µM
same,GI50,NCI-H23 lung,4.37 µM
same,TGI,NCI-H23 lung,19.8 µM
same,GI50,SNB-19 CNS,5.04 µM
same,TGI,SNB-19 CNS,23.9 µM
same,GI50,ACHN renal,5.52 µM
same,TGI,ACHN renal,63.8 µM
same,GI50,RXF 393 renal,1.72 µM
same,TGI,RXF 393 renal,16.8 µM
same,GI50,MDA-MB-231 breast,7.43 µM
same,TGI,MDA-MB-231 breast,23 µM
same,GI50,SF-295 CNS,23.5 µM
same,TGI,SF-295 CNS,47.1 µM
same,GI50,SK-OV-3 ovarian,4.93 µM
same,TGI,SK-OV-3 ovarian,19.6 µM
same,GI50,MOLT-4 leukemia,2.01 µM
same,TGI,MOLT-4 leukemia,4.83 µM
same,GI50,SN12C renal,8.85 µM
same,TGI,SN12C renal,22.8 µM
same,GI50,CAKI-1 renal,2.62 µM
same,TGI,CAKI-1 renal,7.68 µM
same,GI50,COLO 205 colon,5.13 µM
same,TGI,COLO 205 colon,16.3 µM
same,GI50,LOX IMVI melanoma,12.9 µM
same,TGI,LOX IMVI melanoma,30 µM
same,GI50,MCF7 breast,1.35 µM
same,TGI,MCF7 breast,10.7 µM
same,GI50,SK-MEL-28 melanoma,12.3 µM
same,TGI,SK-MEL-28 melanoma,36 µM
same,GI50,HT29 colon,20 µM
same,TGI,HT29 colon,53.8 µM
same,GI50,UO-31 renal,3.82 µM
same,TGI,UO-31 renal,13.7 µM
same,GI50,NCI-H226 lung,7.75 µM
same,TGI,NCI-H226 lung,25.1 µM
same,GI50,OVCAR-8 ovarian,4.85 µM
same,TGI,OVCAR-8 ovarian,34.1 µM
same,GI50,UACC-257 melanoma,11.2 µM
same,TGI,UACC-257 melanoma,32.4 µM
same,GI50,HL-60(TB) leukemia,4.67 µM
same,TGI,HL-60(TB) leukemia,7.86 µM
same,GI50,M14 melanoma,10.7 µM
same,TGI,M14 melanoma,24.9 µM
same,GI50,KM12 colon,3.28 µM
same,TGI,KM12 colon,11.3 µM
same,GI50,NCI-H522 lung,5.27 µM
same,TGI,NCI-H522 lung,19.3 µM
same,GI50,BT-549 breast,3.4 µM
same,TGI,BT-549 breast,16.6 µM
same,GI50,OVCAR-3 ovarian,2.04 µM
same,TGI,OVCAR-3 ovarian,4.25 µM
same,GI50,SR leukemia,2.29 µM
same,TGI,SR leukemia,6.74 µM
same,GI50,SK-MEL-2 melanoma,5.89 µM
same,TGI,SK-MEL-2 melanoma,20.8 µM
same,GI50,UACC-62 melanoma,9.39 µM
same,TGI,UACC-62 melanoma,35.1 µM
same,GI50,HOP-62 NSCLC,3 µM
same,TGI,HOP-62 NSCLC,8.04 µM
same,GI50,A549 NSCLC,6.46 µM
same,TGI,A549 NSCLC,27.6 µM
same,GI50,MDA-MB-435,3.27 µM
same,TGI,MDA-MB-435,9.27 µM
same,GI50,U251 CNS,4.34 µM
same,TGI,U251 CNS,16.8 µM
same,GI50,SK-MEL-5 melanoma,3.43 µM
same,TGI,SK-MEL-5 melanoma,14.3 µM
same,GI50,EKVX NSCLC,4.26 µM
same,TGI,EKVX NSCLC,21.3 µM
same,GI50,SW-620 colon,11 µM
same,TGI,SW-620 colon,96.6 µM
same,GI50,HCC-2998 colon,14.7 µM
same,TGI,HCC-2998 colon,28.3 µM
same,GI50,A498 renal,7.66 µM
same,TGI,A498 renal,20.5 µM
same,GI50,MALME-3M melanoma,6.55 µM
same,TGI,MALME-3M melanoma,19 µM
same,GI50,NCI-H460 lung,3.72 µM
same,TGI,NCI-H460 lung,20.9 µM
same,GI50,HCT-15 colon,5.63 µM
same,TGI,HCT-15 colon,41.3 µM
same,GI50,MDA-N,4.58 µM
same,TGI,MDA-N,19.3 µM
same,GI50,CCRF-CEM leukemia,2.1 µM
same,TGI,CCRF-CEM leukemia,5 µM
same,GI50,DU-145 prostate,2.73 µM
same,TGI,DU-145 prostate,11.2 µM
same,GI50,NCI/ADR-RES ovarian,5.8 µM
same,TGI,NCI/ADR-RES ovarian,34.5 µM
same,GI50,SF-539 CNS,3.1 µM
same,TGI,SF-539 CNS,8.59 µM
same,GI50,K-562 leukemia,17.6 µM
same,TGI,K-562 leukemia,41.9 µM
same,GI50,OVCAR-5 ovarian,4.36 µM
same,TGI,OVCAR-5 ovarian,18.3 µM
same,GI50,IGROV1 ovarian,5.04 µM
same,TGI,IGROV1 ovarian,20.4 µM
same,GI50,SNB-75 CNS,5.13 µM
same,TGI,SNB-75 CNS,22 µM
same,GI50,HCT-116 colon,4.49 µM
same,TGI,HCT-116 colon,19.1 µM
same,GI50,HOP-92 NSCLC,13.3 µM
same,TGI,HOP-92 NSCLC,40.2 µM
same,GI50,786-0 renal,2.58 µM
same,TGI,786-0 renal,6.6 µM
